Structures are written as SMILES. Where a chain is given by its changes, count along the chain named. Where “and” joins values, the source holds several entries; their conditions need not be identical. Equal entries are not always repeated. Where two headings read alike, the source gives them in different places.

The target of assay [1] is T1, hTA1 S107C (Homo sapiens, UniProt Q96RJ0, S107C).
T1 construct: expressed in transfected cells; host or cells: HEK293T
T1 sequence (Q96RJ0 1-339 S107C): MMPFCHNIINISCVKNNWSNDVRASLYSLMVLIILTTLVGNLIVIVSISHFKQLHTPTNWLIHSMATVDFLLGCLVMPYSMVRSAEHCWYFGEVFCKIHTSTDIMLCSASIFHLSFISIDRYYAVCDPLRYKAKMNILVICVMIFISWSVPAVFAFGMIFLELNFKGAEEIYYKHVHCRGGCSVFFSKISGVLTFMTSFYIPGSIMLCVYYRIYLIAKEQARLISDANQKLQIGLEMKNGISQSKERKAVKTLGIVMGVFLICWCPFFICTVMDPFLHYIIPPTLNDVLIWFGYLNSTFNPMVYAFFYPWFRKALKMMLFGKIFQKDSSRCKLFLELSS
The assay can be described thus: GloSensor cAMP accumulation assay, S107C mutant.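 Further: cells transiently co-expressing receptor and GloSensor biosensor, luminescence read after 30 min agonist exposure at room temperature, concentration-response fitted by nonlinear regression.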 The settings on record: S107C; n=2; read-out: EC50. Type of assay: cell-based.

For assay [2], the target named is T2, hTA1 T271N (Homo sapiens, UniProt Q96RJ0, T271N).
T2 construct: expressed in transfected cells; host or cells: HEK293T
T2 sequence (Q96RJ0 1-339 T271N): T1 sequence (Q96RJ0 1-339 S107C) with C107S, T271N
As to the kind of experiment: GloSensor cAMP accumulation assay, T271N mutant. Type of assay: cell-based. On the technique in general: Changes in cAMP serve as a functional read-out for many G protein-coupled receptors.

Turning to `CCc1[nH]nc(C(=O)Nc2ccc([C@H]3CNCCO3)cc2)c1C` [ralmitaront], the EC50 in assay [1] was 118 nM; in assay [2] (T271N mutant, Figure 5B, each row one independent experiment (3 replicates), read-out: pEC50 values, Mean (converted)), 99 nM and 143 nM; in assay [2] (T271N, n=2, read-out: EC50), 119 nM.

Values taken from paper PMC10762035, “Molecular basis of human trace amine-associated receptor 1 activation” (Nature Communications, 2024).
